Assay [1] has as its system CYP19a1 proximal promoter. Put plainly: CYP19a1 proximal promoter luciferase reporter in granulosa cells. The assay is classed as cell-based. To be noted: FSH alone vs no FSH. The text has this: To determine whether the effect of SIK inhibition on Cyp19a1 mRNA levels was mediated by an increase in the expression of the Cyp19a1 gene, granulosa cells were infected with a reporter controlled by the CYP19a1 proximal promoter. Luciferase activity was detectable but low in the absence of FSH while FSH stimulated reporter activity by 20-fold. […] Treatment with the SIK inhibitor alone increased Cyp19a1 promoter activity.
(A reporter such as luciferase makes a cellular process visible.)

The subject of the next assay is human granulosa cells. Put plainly: CYP19A1 protein (western blot) in granulosa cells of IVF patients with different etiologies. In kind it is cell-based. Conditions: FSH alone. On the procedure: Primary granulosa cells were obtained from patients with normal ovarian function (left panel) or patients diagnosed with polycystic ovarian syndrome or anovulation (right panel). Cells were treated with vehicle, FSH, FSH plus HG-9-91-01 (HG), or HG alone for 48 hours. CYP19a1 and β-actin (BACT) protein levels were measured 48 hours after the initiation of treatment by western blot. The intensity of the CYP19a1 and BACT bands was quantified, and the data expressed as a ratio between aromatase and BACT. Different letters represent significant differences, one-way ANOVA followed by Tukey test, p<0.05, (n=5).
Human Granulosa Cells. Human cells were collected from the follicular aspirates of women undergoing in vitro fertilization treatment at the University of Illinois at Chicago Fertility Center, under Institute Review Board approval. Informed consents were obtained from all women. In a subset of patients, additional information was collected to compare the effect of SIK inhibition in patients with different etiologies. Cells were transported immediately to the laboratory where they were dispersed by hyaluronidase digestion (8 IU/μl) and then centrifuged at 500×g for 5 minutes. Cells were incubated at room temperature in red blood cell lysis buffer for 2 minutes to eliminate contaminating erythrocytes. The cells were again centrifuged at 500×g for 5 minutes and suspended in 0.5 ml of serum-free DMEM/F12-0.25% BSA medium containing antibiotics. To investigate mRNA expression, cells were plated at a density of 30000 cells/well in 24-well plates coated with reconstituted basement membrane sold under the tradename Matrigel® (DB Biosciences). To investigate protein expression, cells were plated at a density of 200000 cells/well in 6-well plates coated with reconstituted basement membrane sold under the tradename Matrigel® (DB Biosciences). […] Each data point reflects a result obtained from individual patients. Cells from each patient were cultured separately.
Immunoblot Analysis. Cells were harvested in ice-cold RIPA lysis buffer supplemented with protease inhibitors (Sigma). […]
(In general: Immunoblotting shows a protein as a band on a membrane.)

As to FSH: human recombinant FSH (Serono), the “CYP19a1 promoter reporter (luciferase) activity, stimulation” value in assay [1] is recorded as 20 fold. For the same substance, the CYP19A1 levels result in the assay on human granulosa cells (patient with anovulation) is “stimulated CYP19A1 mRNA levels marginally”. For the same substance, the CYP19A1 stimulation result in the assay on human granulosa cells (patients with PCOS) is on record as “unable to stimulate CYP19A1 in two of the three patients with PCOS”. For the same substance, the CYP19A1 protein levels entry with human granulosa cells (patients with normal ovarian function) was “strongly increased CYP19A1 protein levels”.
